# Assay results published in patent US20080221144A1, “Controlled Release Formulations” (Innovative Drug Delivery Systems, Inc., priority 2004, published 2008).
# Conditions: metabolic ratio, comparison of oral, intravenous, intranasal
smiles,measurement,value
"CN1CC[C@]23c4c5ccc(O)c4O[C@H]2[C@@H](O)C=C[C@H]3[C@H]1C5.O=S(=O)(O)O [10 mg IV + IN Placebo, morphine sulphate]",Formation of M-3-G from morphine (rank among routes),least
same,Formation of M-6-G from morphine (rank among routes),least
